The source of these data is publication PMC5384962, “First-in-human studies of seletalisib, an orally bioavailable small-molecule PI3Kδ inhibitor for the treatment of immune and inflammatory diseases” (European Journal of Clinical Pharmacology, 2017).

In this assay the test system is basophil degranulation. Kind of assay: Study-2 ex vivo basophil degranulation (anti-FcεR1-driven CD63 expression, whole blood).

For the compound `[O-][n+]1cccc(-c2nc3c(Cl)cccc3cc2[C@@H](Nc2ncnc3cccnc23)C(F)(F)F)c1` [Seletalisib, seletalisib], the “basophil degranulation inhibition, multiple-dose day 14 compared with day 1” value was “lower levels of basophil degranulation inhibition”.
